SMILES strings stand for the structures.

Usually Papp stands for a coefficient for how fast a substance crosses the barrier.

A short description of this data set: Apparent permeability across apical to basolateral side in MDCK cells expressing MDR1. Type of data set: ADME, cell-based, Canis lupus familiaris. The note with it: dog.

As to `COc1cc(C(=O)N[C@@H]2CCc3ccc(-c4cn5c(n4)CCC5)cc32)cc(OC)c1C`, the Papp was 9.6 ×10⁻⁶ cm/s.

For the origin of these results see ChEMBL document CHEMBL4251753, “Discovery of Potent 2-Aryl-6,7-dihydro-5 H-pyrrolo[1,2- a]imidazoles as WDR5-WIN-Site Inhibitors Using Fragment-Based Methods and Structure-Based Design” (J Med Chem, 2018).
